# Source: PubChem BioAssay (several laboratories)
# UUG fidelity = modulators of yeast start codon fidelity, primary screen, whole organism, S. cerevisiae, single point, plate reader | AID 602363, 2012 | actives 0.13% (n = 350,000) | activity score, % at 18.7 µM | S. cerevisiae UUG-firefly luciferase reporter, luminescence/redox ratio;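 active means replicate mean at a twofold rise or more, about +100% in these data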;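 further: firefly luciferase made from a UUG start codon reports start codon fidelity; reporter light over untreated wells divided by growth signal over untreated wells; some hits fall short of that in this replicate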
# p-CIP stab down = compounds decreasing mouse p/CIP protein stability | hit rate 0.01% among 290,000 | F442A p/CIP-EGFP cells, EGFP fluorescence, 16 h | decrease of EGFP signal, % at 10 µM;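 active means EGFP signal decrease of at least 30% at 10 µM or well 3 SD below plate mean, unless failing retest; inactive means the rest, including hits failing retest or dose response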
# ABCB6 inh MLPCN = human ABCB6 transporter inhibition | hit rate 0.19% among 360,000 | K562-ABCB6 porphyrin accumulation, flow cytometry, 1 h; active compounds read low | fluorescence ratio to DMSO, % at 10 µM | AID 602162;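 active means fluorescence ratio to DMSO below 75%, the collection mean minus 3 SD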;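 further: signal is porphyrin accumulated inside mitochondria; 100% equals median channel fluorescence of DMSO control wells; lower ratio means ABCB6 inhibition with less porphyrin fluorescence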
# PKA-R2B act = activates the human PKA-R2B holoenzyme complex; hit rate 0.079% among 340,000; AID 504700; activation, % at 11.4 µM; PKA-R2B holoenzyme dissociation, Cy5-IP20 fluorescence polarization; R2B truncated from residue 108, S112A mutant; 0% DMSO only, 100% 113 µM cGMP;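 active means activation above a cutoff set at the mean over all compounds plus 3 SD, cut at about 18% in these data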;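 further: higher means more holoenzyme dissociation and a rise in polarization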
# Granule exo inh = blocks lytic granule exocytosis; inhibition, % at 10 µM; TALL-104 LAMP-1 surface exposure, flow cytometry; cells stimulated with thapsigargin and PMA; hit rate 0.66% among 360,000;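 active means inhibition above about 55%, limit read from the data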
# PKA-R1A act = PKA-R1A complex activation. P00514+P68181. PKA-R1A dissociation, Cy5-IP20 fluorescence polarization; scaled: DMSO 0%, 113 µM cGMP 100%. activation, % at 11.4 µM. hit rate 0.083% among 340,000;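 active means percent activation above the mean of all tested compounds plus 3 SD, cut at about 19% in these data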;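 further: higher means more PKAc released from R1A so a rise in polarization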
# * hit, by the source's call; / = no result. Hits are enriched below; roughly 0.94% of the tested compounds scored in any of these assays.
entry	SMILES	PKA-R1A act	ABCB6 inh MLPCN	Granule exo inh
1	N#CC1=C(S)N=C(N)C(c2nc(-c3ccccc3)cs2)C12CCCCC2 (stereo not drawn)	5	105	-1
2	N#CC1=C(S)N=C(N)C(c2nc(-c3ccccc3)cs2)C12CCCC2 (stereo not drawn)	-4	109	70*
3	C[C@@H]1CN([C@@H](C)CO)C(=O)Cc2cc(NC(=O)Cc3ccccc3)ccc2O[C@H]1CN(C)C	/	/	/
4	COc1ccc(CN(C)C(=O)C(Cc2ccccc2)NC(=O)c2ccccc2)cc1F (stereo not drawn)	-11	90	-1
5	CCOc1ccc(CN(C)C(=O)[C@H](Cc2ccccc2)NC(=O)OCc2ccccc2)cc1OC	-1	95	56*
6	C[C@H](CO)N1C[C@H](C)[C@@H](CN(C)C(=O)Nc2cccc3ccccc23)Oc2ccc(NC(=O)CCC(F)(F)F)cc2C1=O	/	/	/
7	CC(/C=C(\NC(=O)c1ccccc1)C(=O)N=Nc1c(O)[nH]c2ccc(C)cc12)=C\c1ccccc1	-5	73*	-1
8	Nc1nonc1-n1nnc(C(=O)N/N=C/c2cccnc2)c1CSc1ccccc1	13	97	5
9	Nc1nonc1-n1nnc(C(=O)N/N=C/c2cccnc2)c1CSc1ccc(Cl)cc1	-16	87	62*
10	CN(C)Cc1c(C(=O)N/N=C/c2ccccc2OCc2c(F)cccc2Cl)nnn1-c1nonc1N	-4	90	95*
11	C[C@H]1CN([C@@H](C)CO)C(=O)Cc2cc(N(C)C)ccc2O[C@@H]1CN(C)S(=O)(=O)c1cccs1	/	/	/
12	CC(=O)N(C)C[C@H]1Oc2ncc(-c3ccccc3F)cc2C(=O)N([C@H](C)CO)C[C@@H]1C	/	/	/

entry	p-CIP stab down	UUG fidelity	PKA-R2B act
1	-9	-17	0
2	1	/	11
3	/	1	/
4	/	2	-3
5	-15	30	1
6	/	10	/
7	-9	-15	-1
8	4	-7	4
9	6	-7	-3
10	1	-6	3
11	/	-3	/
12	/	-5	/

# Next records:
entry	SMILES	PKA-R1A act	ABCB6 inh MLPCN	Granule exo inh
13	CC(C)N1C(=O)/C(=C\c2nc3ccccc3c(=O)[nH]2)c2ccccc21	2	92	98*
14	CCCN1C(=O)/C(=C/c2nc3ccccc3c(=O)[nH]2)c2ccccc21	-8	97	-1
15	CCCNC(=O)C[C@@H]1CC[C@@H]2[C@@H](COc3ccc(NC(=O)c4cccc(F)c4)cc3C(=O)N2C)O1	/	/	/
16	COc1ccccc1S(=O)(=O)N[C@H]1CC[C@H](CC(=O)N2CCOCC2)O[C@@H]1CO	/	/	/
17	COc1cccc(/C=N/Nc2ccccc2C(=O)O)c1O	12	108	-2
18	O=C(O)c1ccccc1NN=Cc1ccccc1	-4	103	60*
19	O=C(CCN1C(=O)/C(=C/c2ccccc2F)SC1=S)NCCc1ccc(O)cc1	4	98	1
20	COc1ccccc1/C=C1\SC(=S)N(CCC(=O)NCCc2ccc(O)cc2)C1=O	2	96	88*
21	CCCN(C)C[C@@H]1OCCCC[C@H](C)Oc2ccc(N(C)C)cc2C(=O)N([C@H](C)CO)C[C@@H]1C	/	/	/
22	Cc1cccc(NC(=S)Nc2cccc(C)n2)n1	-2	95	73*
23	COC(=O)C(NC(=O)c1ccccc1)=C1CCCCC1	1	74*	-2
24	COc1ccccc1-c1ccc([C@H]2[C@@H](CO)N3CCCCN(C(=O)NC4CCCC4)C[C@H]23)cc1	/	/	/

entry	p-CIP stab down	UUG fidelity	PKA-R2B act
13	4	1	-2
14	3	/	-13
15	/	-5	/
16	/	-1	/
17	-5	-12	0
18	/	-8	0
19	-15	-14	1
20	-14	-1	9
21	/	0	/
22	-1	-22	9
23	-5	-14	2
24	/	6	/

# Next section.
entry	SMILES	PKA-R1A act	ABCB6 inh MLPCN	Granule exo inh
25	Clc1cccc(CNc2nc(-c3cccnc3)nc3ccccc23)c1	-7	99	99*
26	c1ccc(CNc2nc(NCc3ccccc3)c3ccccc3n2)cc1	-5	96	61*
27	c1ccc(CNc2nc(-c3cccnc3)nc3ccccc23)cc1	1	96	8
28	Cc1ccc(S(=O)(=O)N[C@@H]2CC[C@@H](CCNS(=O)(=O)Cc3ccccc3)O[C@H]2CO)cc1	/	/	/
29	O=C(C[C@H]1C[C@H]2c3cc(NC(=O)c4cccnc4)ccc3O[C@H]2[C@H](CO)O1)NCc1ccncc1	/	/	/
30	CN1C(=O)c2cc(NS(=O)(=O)c3ccccc3Cl)ccc2OC[C@@H]2O[C@H](CC(=O)O)CC[C@H]21	/	/	/
31	COc1ccccc1N=C1NC(=O)/C(=C/c2ccc(N(C)C)cc2)S1	-15	154	67*
32	COc1ccc(/C=C2\SC(=Nc3ccccc3)NC2=O)cc1	/	/	/
33	CC(C)(C=O)C1=CC(=O)c2ccccc2C1=O	5	100	91*
34	CCCC#Cc1cnc2c(c1)C(=O)N([C@@H](C)CO)C[C@@H](C)[C@H](CN(C)CCC)O2	/	/	/
35	C[C@@H]1CN([C@H](C)CO)S(=O)(=O)c2ccc(C#Cc3cccc(F)c3)cc2O[C@@H]1CN(C)C(=O)NC1CCCCC1	/	/	/
36	COc1ccc(S(=O)(=O)N[C@@H]2C=C[C@H](CC(=O)NCc3ccccc3F)O[C@@H]2CO)cc1	/	/	/

entry	p-CIP stab down	UUG fidelity	PKA-R2B act
25	-4	-5	3
26	-7	-11	2
27	-9	-15	-1
28	/	-4	/
29	/	-13	/
30	/	-6	/
31	-8	-12	2
32	8	/	/
33	2	/	-7
34	/	8	/
35	/	-8	/
36	/	-23	/

# Continued.
entry	SMILES	PKA-R1A act	ABCB6 inh MLPCN	Granule exo inh
37	N#Cc1ccc(/C=C\c2nccc3c2[nH]c2ccccc23)cc1	2	93	72*
38	CC(C)C#Cc1ccc2c(c1)O[C@H](CN(C)C(=O)NC(C)C)[C@H](C)CN([C@@H](C)CO)S2(=O)=O	/	/	/
39	COc1cccc(N=Cc2nc(-c3ccccc3)oc2OC(C)=O)c1	6	96	64*
40	C[C@H](CO)N1C[C@H](C)[C@H](CN(C)Cc2ccncc2)Oc2cc(C#CC(C)(C)O)ccc2S1(=O)=O	/	/	/
41	C/C=C/c1cnc2c(c1)C(=O)N([C@@H](C)CO)C[C@H](C)[C@H](CN(C)C(=O)NC1CCCCC1)O2	/	/	/
42	O=C(C#Cc1ccccc1)c1ccccc1	4	104	7
43	O=C(C#Cc1ccccc1)c1ccc([N+](=O)[O-])cc1	-9	85	79*
44	CC(C)(C)OC(=O)NCCCC[C@@H](C(=O)N1CCN(C(=O)OC(C)(C)C)CC1)n1cc(CCC(=O)O)nn1	1	100	-3
45	CCCCc1cn([C@@H](CCCCNC(=O)OC(C)(C)C)C(=O)N2CCN(C(=O)OC(C)(C)C)CC2)nn1	-16	97	103*
46	O=[N+]([O-])c1ccc(N2CCN(C(=S)NCc3ccc(Cl)cc3)CC2)cc1	0	98	68*
47	O=C(CSc1n[nH]c(C2CCCC2)n1)NC1CCCC1	0	96	2
48	Nc1nc(SCC(=O)NC2CCCCC2)n[nH]1	5	100	76*

entry	p-CIP stab down	UUG fidelity	PKA-R2B act
37	16	/	1
38	/	16	/
39	1	5	-5
40	/	-11	/
41	/	2	/
42	/	-4	1
43	-4	-12	-6
44	-3	9	4
45	3	53	3
46	-10	/	5
47	2	-29	0
48	4	-22	-11
